Measured values reported in article PMC2784635 (Bioorganic & medicinal chemistry, 2008).

Columns and labels:
[1] = biological target: T1, [Fe2S2] cluster of ISP of R. capsulatus chromatophore membranes (Rhodobacter capsulatus, UniProt D5ANZ2+D5ANZ3); details: 100 μM inhibitor, 5 mM ascorbate; for gx (EPR g value): Table 6
T1 sequence (D5ANZ2 1-191): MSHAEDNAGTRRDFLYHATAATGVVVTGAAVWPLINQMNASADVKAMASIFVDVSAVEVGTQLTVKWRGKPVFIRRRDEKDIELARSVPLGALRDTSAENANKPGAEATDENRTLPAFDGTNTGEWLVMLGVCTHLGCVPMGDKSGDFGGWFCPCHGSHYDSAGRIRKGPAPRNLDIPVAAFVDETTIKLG
T1 sequence (D5ANZ3 1-437): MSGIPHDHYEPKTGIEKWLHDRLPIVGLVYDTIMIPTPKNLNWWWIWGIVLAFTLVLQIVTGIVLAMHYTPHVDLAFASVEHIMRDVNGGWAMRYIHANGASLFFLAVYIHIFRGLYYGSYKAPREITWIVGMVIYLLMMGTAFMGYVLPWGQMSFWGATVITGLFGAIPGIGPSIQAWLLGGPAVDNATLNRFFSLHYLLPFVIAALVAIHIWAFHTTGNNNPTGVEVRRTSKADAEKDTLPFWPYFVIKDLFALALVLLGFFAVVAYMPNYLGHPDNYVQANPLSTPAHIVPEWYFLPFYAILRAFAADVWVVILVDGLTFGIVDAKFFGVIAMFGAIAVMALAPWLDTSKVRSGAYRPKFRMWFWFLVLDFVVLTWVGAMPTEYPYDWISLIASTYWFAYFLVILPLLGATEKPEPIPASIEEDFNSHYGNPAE
T1 sequence (D5ANZ4 22-279 partner): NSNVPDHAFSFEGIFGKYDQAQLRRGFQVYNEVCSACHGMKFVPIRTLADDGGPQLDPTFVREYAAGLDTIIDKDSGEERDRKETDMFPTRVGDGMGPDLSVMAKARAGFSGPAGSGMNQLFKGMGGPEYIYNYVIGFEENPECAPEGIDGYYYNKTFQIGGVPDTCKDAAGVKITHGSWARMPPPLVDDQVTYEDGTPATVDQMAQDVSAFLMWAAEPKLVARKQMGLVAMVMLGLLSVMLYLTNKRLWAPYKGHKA

[2] = test system: strain of yeast engineered with the G143A mutation; experiment: cross-resistance test on engineered yeast; details: G143A mutation responsible for fungicide resistance

Question: Which “gy (EPR g value)” value [1] does the source give for `C[C@@]1(c2ccc(Oc3ccccc3)cc2)OC(=O)N(Nc2ccccc2)C1=O` (racemic) [Compound 4, Famoxadone] here?
Answer: The value was 1.903.

Question: What about the “gx (EPR g value)” value [1] of the same compound?
Answer: The value was 1.786.

Question: How did the “gy (EPR g value)” value [1] turn out when `CO/C(=C/C(N)=O)[C@H](C)[C@H](/C=C/c1csc(-c2csc([C@@H](C)/C=C/C=C/C(C)C)n2)n1)OC` [Compound 5, myxothiazole] was run?
Answer: Its value is 1.901.

Question: And the “gx (EPR g value)” value [1]?
Answer: Its value is 1.771.

Question: `COC(=O)COc1ccc2oc(=O)n(Cc3ccc(Cc4ccc(I)cc4)cc3)c2c1` [Compound 19] was tested. Which “gy (EPR g value)” value [1] did it give?
Answer: The value was 1.897.

Question: What about the “gx (EPR g value)” value [1] of the same compound?
Answer: Its value is 1.808.

Question: Which results are given for `C/C=C(C)/C=C/C=C/[C@H](OC)[C@@H](C)[C@@H](OC)[C@@H](C)CCc1oc2c(O)c(OC)cc(OC)c2c(=O)c1C` [Compound 2, stigmatellin]?
Answer: gx transition (EPR) [1]: 1.782; gy (EPR g value) [1]: 1.891

Question: With `COC(=O)CNC(=O)/C=C\C/C=C\NC(=O)/C=C(C)/C=C/[C@H](C)[C@H](OC)[C@H](C)[C@H](/C=C/c1ccccc1)OC` [Compound 8, crocacin A] as the compound, how does the “cross-resistance against yeast with G143A mutation” value [2] read?
Answer: Its value is “little or no cross-resistance”.

Question: Which “gx (EPR g value)” value [1] does the source give for `COC(=O)CNC(=O)CCC/C=C\NC(=O)c1ccc(Cc2ccc(I)cc2)cc1` [Compound 16] here?
Answer: Its value is 1.793.
